{"sequences": {"note": "Sequences of proteins named here, by UniProt entry; tags and fusion partners are left off. Residues count along the entry.", "UniProt O42275, 24-633 limits assumed": "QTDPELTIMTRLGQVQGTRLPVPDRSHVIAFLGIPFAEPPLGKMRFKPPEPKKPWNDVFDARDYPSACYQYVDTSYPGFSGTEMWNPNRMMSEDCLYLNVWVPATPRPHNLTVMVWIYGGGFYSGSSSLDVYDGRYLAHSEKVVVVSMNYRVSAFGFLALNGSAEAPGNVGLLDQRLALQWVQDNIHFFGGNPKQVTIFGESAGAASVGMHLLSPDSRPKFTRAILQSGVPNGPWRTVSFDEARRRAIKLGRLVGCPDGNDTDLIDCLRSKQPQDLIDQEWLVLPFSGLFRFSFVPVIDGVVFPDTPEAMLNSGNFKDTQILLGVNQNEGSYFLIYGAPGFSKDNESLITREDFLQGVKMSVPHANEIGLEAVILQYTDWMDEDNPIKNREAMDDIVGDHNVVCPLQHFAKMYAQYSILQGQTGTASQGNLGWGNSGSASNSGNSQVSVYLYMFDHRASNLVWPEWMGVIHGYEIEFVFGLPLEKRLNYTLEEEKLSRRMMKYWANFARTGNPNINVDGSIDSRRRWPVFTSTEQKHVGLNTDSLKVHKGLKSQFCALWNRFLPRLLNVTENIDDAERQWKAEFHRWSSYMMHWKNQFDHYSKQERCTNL", "UniProt P81908, whole entry, looked up": "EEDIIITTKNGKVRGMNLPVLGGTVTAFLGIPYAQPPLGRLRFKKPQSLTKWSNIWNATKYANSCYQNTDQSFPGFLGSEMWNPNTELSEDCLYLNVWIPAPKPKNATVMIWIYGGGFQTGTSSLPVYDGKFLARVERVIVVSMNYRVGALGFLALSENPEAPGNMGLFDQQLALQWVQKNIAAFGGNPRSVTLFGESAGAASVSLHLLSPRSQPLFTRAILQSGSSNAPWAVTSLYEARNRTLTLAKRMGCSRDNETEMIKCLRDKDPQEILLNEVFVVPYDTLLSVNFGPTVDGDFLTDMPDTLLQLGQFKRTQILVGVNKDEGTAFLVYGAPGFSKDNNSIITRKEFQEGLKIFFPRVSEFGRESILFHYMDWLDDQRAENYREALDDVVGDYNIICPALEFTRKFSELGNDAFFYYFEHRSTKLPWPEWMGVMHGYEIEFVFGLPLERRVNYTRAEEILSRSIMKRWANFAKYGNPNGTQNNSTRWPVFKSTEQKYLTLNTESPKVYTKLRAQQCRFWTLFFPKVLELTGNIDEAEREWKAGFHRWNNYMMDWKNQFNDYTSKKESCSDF"}, "source": "paper PMC7230519", "about": "“Comparative Kinetics of Acetyl- and Butyryl-Cholinesterase Inhibition by Green Tea Catechins|Relevance to the Symptomatic Treatment of Alzheimer’s Disease” (2020)", "key": {"[1]": {"biological_target": "Acetylcholinesterase (AChE) (EC 3.1.1.7) from electric eel (Electrophorus electricus, UniProt O42275)", "assay": "Ellman assay, AChE inhibition"}, "[2]": {"biological_target": "T1, Butyrylcholinesterase (BuChE) from equine serum (Equus caballus, UniProt P81908)", "assay": "Ellman assay, BuChE inhibition"}, "[3]": {"biological_target": "Acetylcholinesterase (AChE) from electric eel (Electrophorus electricus, UniProt O42275)", "assay": "Kinetic analysis of AChE inhibition, Lineweaver-Burk plots", "conditions": "for Km / VMAX: AChE; for Type of AChE inhibition: from L-B plots, VMAX and KM"}, "[4]": {"conditions": "estimated; in mice; cited from earlier work"}, "[5]": {"biological_target": "T1, Butyrylcholinesterase (BuChE) from equine serum", "assay": "Kinetic analysis of BuChE inhibition, Lineweaver-Burk plots", "conditions": "for VMAX: BuChE"}, "[6]": {"conditions": "inhibitor 2.000 mg/mL, final assay concentration 0.103 µmol/mL"}, "[7]": {"conditions": "inhibitor 1.000 mg/mL, 0.051 µmol/mL"}, "[8]": {"conditions": "inhibitor 2.000 mg/mL, 0.103 µmol/mL"}, "[9]": {"conditions": "inhibitor 5.000 mg/mL, final assay concentration 0.248 µmol/mL"}, "[10]": {"conditions": "minimum concentration for statistically significant inhibition, one-way ANOVA with post-hoc Tukey"}, "[11]": {"conditions": "inhibitor 2.500 mg/mL, 0.124 µmol/mL"}, "[12]": {"conditions": "inhibitor 5.000 mg/mL, 0.248 µmol/mL"}, "[13]": {"conditions": "inhibitor 5.000 mg/mL, final assay concentration 0.371 µmol/mL"}, "[14]": {"conditions": "inhibitor 2.500 mg/mL, 0.186 µmol/mL"}, "[15]": {"conditions": "inhibitor 5.000 mg/mL, 0.371 µmol/mL"}}}
{"smiles": "O=C(O[C@@H]1Cc2c(O)cc(O)cc2O[C@@H]1c1ccc(O)c(O)c1)c1cc(O)c(O)c(O)c1", "values": [{"measurement": "AChE Inhibition (%)", "setting": "[1]; [6]", "value": 37.14, "unit": "%"}, {"measurement": "BuChE Inhibition (%)", "setting": "[2]; [6]", "value": 45.65, "unit": "%"}, {"measurement": "Km", "setting": "[3]; [7]", "value": 75, "unit": "µM"}, {"measurement": "VMAX", "setting": "[3]; [7]", "value": 0.041, "unit": "mM"}, {"measurement": "Km", "setting": "[3]; [8]", "value": 74, "unit": "µM"}, {"measurement": "VMAX", "setting": "[3]; [8]", "value": 0.030, "unit": "mM"}, {"measurement": "Type of AChE inhibition", "setting": "[3]", "value": "uncompetitive"}]}
{"smiles": "O=C(O[C@@H]1Cc2c(O)cc(O)cc2O[C@@H]1c1cc(O)c(O)c(O)c1)c1cc(O)c(O)c(O)c1", "values": [{"measurement": "AChE Inhibition (%)", "setting": "[1]; [9]", "value": 82.35, "unit": "%"}, {"measurement": "BuChE Inhibition (%)", "setting": "[2]; [9]", "value": 89.64, "unit": "%"}, {"measurement": "Threshold [Inhibitor] required for BuChE inhibition", "setting": "[2]; [10]", "value": "<0.001", "unit": "µmol/mL"}, {"measurement": "Km", "setting": "[3]; [11]", "value": 94, "unit": "µM"}, {"measurement": "VMAX", "setting": "[3]; [11]", "value": 0.014, "unit": "mM"}, {"measurement": "Km", "setting": "[3]; [12]", "value": 5300, "unit": "µM"}, {"measurement": "VMAX", "setting": "[3]; [12]", "value": 0.081, "unit": "mM"}, {"measurement": "Blood-brain barrier permeability", "setting": "[4]", "value": 2.8, "unit": "%"}, {"measurement": "VMAX", "setting": "[5]; inhibitor 0.125 mg/mL, 0.124 µmol/mL", "value": 0.021, "unit": "mM"}, {"measurement": "VMAX", "setting": "[5]; inhibitor 0.250 mg/mL, 0.248 µmol/mL", "value": 0.030, "unit": "mM"}, {"measurement": "Type of BuChE inhibition", "setting": "[5]; from L-B plots, VMAX and KM", "value": "competitive"}]}
{"smiles": "Oc1cc(O)c2c(c1)O[C@H](c1cc(O)c(O)c(O)c1)[C@H](O)C2", "values": [{"measurement": "AChE Inhibition (%)", "setting": "[1]; [13]", "value": 82.65, "unit": "%"}, {"measurement": "Threshold [Inhibitor] required for AChE inhibition", "setting": "[1]; [10]", "value": 0.023, "unit": "µmol/mL"}, {"measurement": "BuChE Inhibition (%)", "setting": "[2]; [13]", "value": 47.72, "unit": "%"}, {"measurement": "Km", "setting": "[3]; [14]", "value": 25, "unit": "µM"}, {"measurement": "VMAX", "setting": "[3]; [14]", "value": 0.013, "unit": "mM"}, {"measurement": "Km", "setting": "[3]; [15]", "value": 27, "unit": "µM"}, {"measurement": "VMAX", "setting": "[3]; [15]", "value": 0.009, "unit": "mM"}, {"measurement": "Type of AChE inhibition", "setting": "[3]", "value": "uncompetitive"}]}
